{"source": "paper PMC7473772", "about": "(eLife, 2020)", "key": {"[1]": {"target": "T1, aqp1/aqp2/aqp3 null cells expressing TbAQP2-WT (Trypanosoma brucei brucei, UniProt Q6ZXT3)", "T1 sequence (Q6ZXT3 1-312)": "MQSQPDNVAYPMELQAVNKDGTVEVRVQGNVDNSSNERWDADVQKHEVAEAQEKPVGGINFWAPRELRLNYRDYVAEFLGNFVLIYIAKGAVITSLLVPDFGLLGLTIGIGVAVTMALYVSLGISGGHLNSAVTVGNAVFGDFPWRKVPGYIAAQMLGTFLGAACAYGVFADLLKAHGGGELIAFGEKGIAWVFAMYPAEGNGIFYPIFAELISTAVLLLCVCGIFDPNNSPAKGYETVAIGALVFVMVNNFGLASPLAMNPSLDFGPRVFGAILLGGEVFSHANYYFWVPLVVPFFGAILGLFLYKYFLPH", "assay": "Inhibition of [3H]-pentamidine uptake (dose response)", "type": "cell-based", "design": "unit not given here", "settings": "zero inhibitor point 0.01011"}, "[2]": {"target": "T1, aqp1/aqp2/aqp3 null cells expressing TbAQP2-WT", "assay": "Inhibition of [3H]-glycerol uptake", "type": "cell-based", "design": "glycerol uptake: unit not given here", "settings": "for glycerol uptake: zero inhibitor point 0.002246"}}, "data": [{"substance": "carbonyl cyanide m-chlorophenyl hydrazone [CCCP]", "values": [{"measurement": "pentamidine uptake", "setting": "[1]; log[inhibitor] -4.00", "value": 0.003012}, {"measurement": "pentamidine uptake", "setting": "[1]; log[inhibitor] -4.48", "value": 0.00483}, {"measurement": "pentamidine uptake", "setting": "[1]; log[inhibitor] -5.00", "value": 0.007941}, {"measurement": "pentamidine uptake", "setting": "[1]; log[inhibitor] -5.48", "value": 0.01034}, {"measurement": "pentamidine uptake", "setting": "[1]; log[inhibitor] -6.00", "value": 0.01003}, {"measurement": "pentamidine uptake", "setting": "[1]; log[inhibitor] -6.48", "value": 0.0106}, {"measurement": "IC50", "setting": "[2]; […] [3H]-glycerol, 1 min", "value": "20.7 ± 2.6", "unit": "µM"}, {"measurement": "glycerol uptake", "setting": "[2]; log[inhibitor] -4.00", "value": 0.000295}, {"measurement": "glycerol uptake", "setting": "[2]; log[inhibitor] -4.48", "value": 0.000656}, {"measurement": "glycerol uptake", "setting": "[2]; log[inhibitor] -5.00", "value": 0.001512}, {"measurement": "glycerol uptake", "setting": "[2]; log[inhibitor] -5.48", "value": 0.00208}, {"measurement": "glycerol uptake", "setting": "[2]; log[inhibitor] -6.00", "value": 0.002357}, {"measurement": "glycerol uptake", "setting": "[2]; log[inhibitor] -6.48", "value": 0.002172}]}]}
